In the test the target is cloned rat mGluR1 receptor (Rattus norvegicus, UniProt P23385). As to the kind of experiment: Signal transduction at the cloned rat mGluR1 receptor in CHO cells (glutamate-induced intracellular Ca2+ rise, FLIPR). In kind it is cell-based. The conditions noted are these: 50% inhibition of glutamate-induced intracellular Ca2+ rise, CHO cells expressing mGluR1, compounds added for 20 minutes.

Chains of the proteins cited; added tags and fusions are not shown. Residues count along the entry.
UniProt P23385, 19-1199 limits assumed: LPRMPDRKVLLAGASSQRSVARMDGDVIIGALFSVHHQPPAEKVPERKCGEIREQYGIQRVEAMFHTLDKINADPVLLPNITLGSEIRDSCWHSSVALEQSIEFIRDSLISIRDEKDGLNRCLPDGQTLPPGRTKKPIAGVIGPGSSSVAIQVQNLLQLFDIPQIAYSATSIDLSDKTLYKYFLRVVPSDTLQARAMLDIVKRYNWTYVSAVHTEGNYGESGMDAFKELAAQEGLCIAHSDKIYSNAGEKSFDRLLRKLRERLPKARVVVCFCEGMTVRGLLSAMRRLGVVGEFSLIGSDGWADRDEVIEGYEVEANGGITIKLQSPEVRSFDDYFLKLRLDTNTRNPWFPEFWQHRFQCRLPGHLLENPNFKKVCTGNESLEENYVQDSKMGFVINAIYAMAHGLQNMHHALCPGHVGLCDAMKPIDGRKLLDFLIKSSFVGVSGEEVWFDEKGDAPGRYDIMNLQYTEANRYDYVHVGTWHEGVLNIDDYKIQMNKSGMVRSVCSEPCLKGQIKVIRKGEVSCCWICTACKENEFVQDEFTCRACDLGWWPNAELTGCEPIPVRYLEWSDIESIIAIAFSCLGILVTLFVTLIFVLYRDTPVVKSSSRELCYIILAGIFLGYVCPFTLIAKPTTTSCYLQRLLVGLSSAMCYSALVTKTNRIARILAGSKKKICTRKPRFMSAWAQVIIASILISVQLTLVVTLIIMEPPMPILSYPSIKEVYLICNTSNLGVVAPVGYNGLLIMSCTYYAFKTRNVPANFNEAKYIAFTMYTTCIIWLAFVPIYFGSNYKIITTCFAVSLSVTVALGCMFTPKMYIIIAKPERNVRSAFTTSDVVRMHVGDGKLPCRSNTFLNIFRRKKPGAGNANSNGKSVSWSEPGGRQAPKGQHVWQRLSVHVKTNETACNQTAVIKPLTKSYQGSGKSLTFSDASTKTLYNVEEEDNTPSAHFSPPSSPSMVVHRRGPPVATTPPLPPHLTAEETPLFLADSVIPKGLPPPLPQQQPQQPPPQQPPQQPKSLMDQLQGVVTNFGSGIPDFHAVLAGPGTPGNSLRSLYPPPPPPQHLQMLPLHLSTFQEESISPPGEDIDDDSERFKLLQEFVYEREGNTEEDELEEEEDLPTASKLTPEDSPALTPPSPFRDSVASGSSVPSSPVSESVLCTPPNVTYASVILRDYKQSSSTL

By pIC50 is commonly meant the IC50 on a negative log10 scale, so that one unit is a factor of ten.

Take `CCc1cc2cc(C(=O)CC3CC4CCC3C4)ccc2nc1C` (centres unmarked): the pIC50 amounted to 7.22.
Under `CCc1cc2cc(C(=O)Cc3ccccc3)ccc2nc1Cl` stands 7.35; under `O=C(CC1(F)CC2CCC1C2)c1ccc2nc3c(cc2c1)CCCO3` (centres unmarked), 7.34.
As for `CCCc1cc2cc(C(=O)CC3CC4CCC3C4)ccc2nc1C` (centres unmarked), the negative logarithm of the IC50 (pIC50) is reported as 7.11.
Under `O=C(Cc1ccc(F)c(F)c1)c1ccc2nc3c(cc2c1)CCCO3` stands 7.13.
